According to patent US11819556B2, “Stabilized compositions of radionuclides and uses thereof” (RayzeBio, Inc., priority 2021, dated 2023):
Like-named read-outs stand apart in the source and are kept apart here.

Settings: 0.03 mCi/ml, excipient 1 mg/ml in sodium acetate-acetic acid buffer pH 5.80, 25° C.

## Dextran (60-90) [Dextran (60-90), Clinical grade]
0 hour after mixing
  Percentage of ^225Ac present in [^225Ac]Ac-DOTA-TATE: 99.42%
24 hours after mixing
  Percentage of ^225Ac present in [^225Ac]Ac-DOTA-TATE: 94.91%
48 hours after mixing
  Percentage of ^225Ac present in [^225Ac]Ac-DOTA-TATE: 86.80%

## Catechin hydrate
0 hour after mixing
  Percentage of ^225Ac present in [^225Ac]Ac-DOTA-TATE: 99.42%
24 hours after mixing
  Percentage of ^225Ac present in [^225Ac]Ac-DOTA-TATE: 95.41%
48 hours after mixing
  Percentage of ^225Ac present in [^225Ac]Ac-DOTA-TATE: 95.64%

## O=C1O[C@H]([C@@H](O)CO)C([O-])=C1O.[Na+] [Sodium Ascorbate, pH 5.8, Sodium Ascorbate]
0 hour after mixing
  Percentage of ^225Ac present in [^225Ac]Ac-DOTA-TATE: 99.42%
24 hours after mixing
  Percentage of ^225Ac present in [^225Ac]Ac-DOTA-TATE: 95.42%
